Measured values reported in US6340697B1, “Oxime derivatives and agricultural chemicals containing the same” (Dainippon Ink and Chemicals, Inc., priority 1997, dated 2002).

What was measured:
Phytophthora infestans = type: in vivo; details: tomato foliage spray, effective component 250 ppm, degree of disease after 5 days
Pyricularia oryzae = type: in vivo; details: rice foliage spray, effective component 250 ppm, degree of disease after 7 days

CCC(C)C(=O)Nc1nc(CON=C(c2ccccc2)c2nsnc2C)cs1 (stereo not drawn) [8-(b)-9]
Evaluation (Phytophthora infestans): B (grade “B” was selected when the number of diseased plants, which include plants with lesions or withered plants, is around 10% among the total numbers of plants)

Cc1nsnc1C(=NOCc1nccs1)c1ccccc1 [6-(b)-19]
Evaluation (Phytophthora infestans): B (grade “B” was selected when the number of diseased plants, which include plants with lesions or withered plants, is around 10% among the total numbers of plants)
Evaluation (Pyricularia oryzae): B (grade “B” was selected when the number of diseased plants, which include plants with lesions or withered plants, is around 10% among the total numbers of plants)

Cc1ccc(CON=C(c2ccccc2)c2nsnc2C)nc1 [1-(b)-9]
Evaluation (Phytophthora infestans): B (grade “B” was selected when the number of diseased plants, which include plants with lesions or withered plants, is around 10% among the total numbers of plants)

Cc1snnc1C(=NOCc1ccccn1)c1ccc(Cl)cc1 [4-(a)-3]
Evaluation (Phytophthora infestans): B (grade “B” was selected when the number of diseased plants, which include plants with lesions or withered plants, is around 10% among the total numbers of plants)

Cc1snnc1C(=NOCc1csc(N)n1)c1ccccc1 [8-(a)-1]
Evaluation (Phytophthora infestans): B (grade “B” was selected when the number of diseased plants, which include plants with lesions or withered plants, is around 10% among the total numbers of plants)

Cc1nsnc1C(=NOCc1csc(NC(=O)CC(C)C)n1)c1ccccc1 [8-(b)-8]
Evaluation (Phytophthora infestans): B (grade “B” was selected when the number of diseased plants, which include plants with lesions or withered plants, is around 10% among the total numbers of plants)

Cc1nsnc1C(=NOCc1ccccn1)c1ccc(F)cc1 [4-(b)-13]
Evaluation (Phytophthora infestans): B (grade “B” was selected when the number of diseased plants, which include plants with lesions or withered plants, is around 10% among the total numbers of plants)

Cc1snnc1C(=NOCc1nccs1)c1ccccc1 [6-(a)-19]
Evaluation (Phytophthora infestans): B (grade “B” was selected when the number of diseased plants, which include plants with lesions or withered plants, is around 10% among the total numbers of plants)
Evaluation (Pyricularia oryzae): B (grade “B” was selected when the number of diseased plants, which include plants with lesions or withered plants, is around 10% among the total numbers of plants)

Cc1cccc(C(=NOCc2ccccn2)c2nnsc2C)c1 [4-(a)-22]
Evaluation (Phytophthora infestans): B (grade “B” was selected when the number of diseased plants, which include plants with lesions or withered plants, is around 10% among the total numbers of plants)
Evaluation (Pyricularia oryzae): B (grade “B” was selected when the number of diseased plants, which include plants with lesions or withered plants, is around 10% among the total numbers of plants)
